SMILES strings stand for the structures.

Amino acid sequences for entries named in this document (tags omitted).
UniProt P19785, whole entry: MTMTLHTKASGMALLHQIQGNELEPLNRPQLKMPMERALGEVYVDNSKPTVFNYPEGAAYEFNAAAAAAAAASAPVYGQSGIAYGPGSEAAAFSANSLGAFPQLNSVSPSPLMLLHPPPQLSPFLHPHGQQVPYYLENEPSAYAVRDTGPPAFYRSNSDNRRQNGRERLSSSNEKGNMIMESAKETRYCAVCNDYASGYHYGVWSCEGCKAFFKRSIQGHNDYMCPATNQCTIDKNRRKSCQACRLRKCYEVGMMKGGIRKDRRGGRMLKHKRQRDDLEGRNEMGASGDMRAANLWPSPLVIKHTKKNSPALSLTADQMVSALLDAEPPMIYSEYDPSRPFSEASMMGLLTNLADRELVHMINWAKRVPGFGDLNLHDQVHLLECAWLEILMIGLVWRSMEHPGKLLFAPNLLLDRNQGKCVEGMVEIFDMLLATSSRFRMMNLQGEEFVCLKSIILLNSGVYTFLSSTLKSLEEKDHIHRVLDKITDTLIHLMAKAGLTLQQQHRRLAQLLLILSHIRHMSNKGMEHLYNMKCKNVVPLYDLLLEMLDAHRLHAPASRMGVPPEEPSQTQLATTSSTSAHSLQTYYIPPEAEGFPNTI

The source of these data is ChEMBL document CHEMBL1138773, “Design and synthesis of aryl diphenolic azoles as potent and selective estrogen receptor-beta ligands” (J Med Chem, 2004).

The target of the assay is Estrogen receptor (Mus musculus, UniProt P19785).

Turning to `N#Cc1cc(O)cc2nc(-c3ccc(O)cc3)oc12`, the IC50 was determined as 0.423 µM.
